The list shows a part of the results. Calls of active or inactive are those of the source.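 The calls were made as follows: active = lowest replicate activity score at least 50, where 100 means six control SD above control mean; inconclusive = lowest score under 50 but half or more replicates reach 50; inactive = the rest.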

This test in a line: polyadenylation inhibitors in yeast reporter cells, primary screen, luminescence, S. cerevisiae (AID 1875).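 Also: yeast exposed to compound for 9 h at 30 °C; higher score means more reporter readthrough which indicates perturbed polyadenylation.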 The settings on record: S. cerevisiae SKY197-pL101 polyadenylation reporter, beta-gal luminescence; at 12 µM; hits give high values; efflux-impaired pdr1/pdr3 knockout yeast; score 100 = 6 SD above DMSO.
Turning to `CC(=O)Nc1ccc(Oc2c([N+](=O)[O-])cc([N+](=O)[O-])cc2[N+](=O)[O-])cc1`, the activity score was inactive: -4.24%.

Turning to `O=C(NC1CCS(=O)(=O)C1)NP(=S)(Oc1ccccc1)Oc1ccccc1` (stereo unspecified), the activity score was inactive: -9.96%.

Regarding `CCNC(=S)/N=C(\N)N[N+](=O)[O-]`, the activity score is inactive: 8.35%.

As for `c1ccc(-c2nn[nH]n2)c(-c2nn[nH]n2)c1`, the activity score was inactive: -7.26%.

For the molecule `Cc1ccc(NP(=O)(Oc2cccc(C)c2)Oc2cccc(C)c2)nc1`, the activity score was inactive: -19.5%.

In the case of `CCOC(=O)NC(Sc1ccccc1)C(Cl)(Cl)Cl` (stereo unspecified), the activity score is inactive: -22.7%.

As for `CCOC(=O)c1ccc(NP(C)(=O)Oc2ccc(F)cc2)cc1` (stereo unspecified), the activity score was inactive: 17.3%.

As to `COc1ccc(OP(C)(=O)Nc2ccc(SC(F)(F)F)cc2)cc1` (stereo unspecified), the activity score was inactive: -2.18%.

Take `COC(=O)c1cc2c(s1)N=C(c1ccccc1)N(C)P2(=O)N1CCOCC1` (stereo unspecified): the activity score was inactive: 9.59%.

In the case of `CC(=O)NC(SC(=S)N(CC(C)C)CC(C)C)C(Cl)(Cl)Cl` (stereo unspecified), the activity score is inactive: -25.1%.

Turning to `Cc1ccc(OP(=O)(Nc2ccccn2)Oc2ccc(C)cc2)cc1`, the activity score was inactive: -67.2%.

As for `O=C(OC1CN2CCC1CC2)c1ccccc1` (stereo unspecified), the activity score is inactive: -23.9%.

For `CP(=O)(Nc1ccccc1)Oc1ccc(F)cc1` (stereo unspecified), the activity score is inactive: -0.0114%.

In the case of `Cc1ccccc1OP(=O)(Nc1ccccn1)Oc1ccccc1C`, the activity score is inactive: -5.09%.

As to `O=[N+]([O-])c1cc([N+](=O)[O-])c(OC2CCCCC2O)c([N+](=O)[O-])c1` (stereo unspecified), the activity score was inactive: -13.4%.

Turning to `CCCCCOc1ccc(NP(C)(=O)Oc2ccc(Cl)cc2Cl)cc1` (stereo unspecified), the activity score was inactive: -0.975%.

Take `CN(C)C(=O)Oc1noc2ccccc12`: the activity score was inactive: 14.5%.

Turning to `COc1ccc(OP(C)(=O)Nc2cccc(Br)c2)cc1` (stereo unspecified), the activity score is inactive: 8.22%.

For the molecule `CN(C)C1(CNC(=O)c2ccc(Cl)c(S(N)(=O)=O)c2)CCCCC1`, the activity score was inactive: -15.7%.

In the case of `O=P(Nc1ccccn1)(c1ccc(Br)cc1)c1ccc(Br)cc1`, the activity score is inactive: -2.9%.

For the molecule `O=P(Nc1nc2ccccc2s1)(c1ccccc1)c1ccccc1`, the activity score was inactive: 11.2%.

For `CN(C)CCOC(=O)C(O)(c1ccccc1)C1CCCCC1` (stereo unspecified), the activity score is inactive: 9.17%.

Turning to `C[C@H]1OP(=O)(Oc2ccccc2)[C@H](O)[C@H](O)[C@H]1N=[N+]=[N-]` (stereo partly specified), the activity score was inactive: 5.54%.

Regarding `COc1ccc(NP(C)(=O)Oc2ccccc2OC)cc1` (stereo unspecified), the activity score is inactive: -8.57%.

As for `O=[N+]([O-])c1ccc(OP2(=O)COCCO2)cc1` (stereo unspecified), the activity score was inactive: 1.78%.

Regarding `CC(=O)NC(SC(=S)N(C)C)C(Cl)(Cl)Cl` (stereo unspecified), the activity score was inactive: -6.37%.

With `O=[N+]([O-])c1ncn(CCn2cnc([N+](=O)[O-])n2)n1`, the activity score was inactive: -0.593%.

In the case of `O=[N+]([O-])c1ccc(O)c(/C=N/Nc2ccc([N+](=O)[O-])cc2[N+](=O)[O-])c1`, the activity score is inactive: 17.3%.

In the case of `O=[As](O)(c1ccccc1)c1ccc(O)cc1`, the activity score is inactive: 14.6%.

For `Cc1cc(-c2cccc3ccccc23)c(C)cn1.O=[N+]([O-])c1cc([N+](=O)[O-])c(O)c([N+](=O)[O-])c1`, the activity score is inactive: 1.63%.

Turning to `O=[N+]([O-])c1cc([N+](=O)[O-])c(NCC2CCS(=O)(=O)C2)c([N+](=O)[O-])c1` (stereo unspecified), the activity score was inactive: 7.92%.

For `C(Cc1nn[nH]n1)Cc1nn[nH]n1`, the activity score is inactive: 8.65%.

For `Nc1ccc([As](=O)(O)c2ccc([N+](=O)[O-])cc2)cc1`, the activity score is inactive: -14.7%.

Consider `O=C(OC1CN2CCC1CC2)c1cccc(Cl)c1` (stereo unspecified), for which the activity score was inactive: 14.4%.

Take `CP(=O)(Nc1ccc(SC(F)(F)F)cc1)Oc1ccc(F)cc1` (stereo unspecified): the activity score was inactive: -4.17%.

Consider `O=P(Nc1nccs1)(c1ccccc1)c1ccccc1`, for which the activity score was inactive: 16.3%.

`CC(C)C(=O)NC(Sc1ccccc1)C(Cl)(Cl)Cl` (stereo unspecified): the activity score is inactive: -0.428%.

Regarding `CCOP(C)(=S)SCC(=O)NC(C)(CC)C(=O)O` (stereo unspecified), the activity score is inactive: 20.6%.

With `c1nnnn1CCn1cnnn1`, the activity score is inactive: 24.1%.

Take `CP(=O)(Nc1ccc2c(c1)OCCO2)Oc1ccccc1` (stereo unspecified): the activity score is inactive: -2.39%.

Regarding `Cc1ccccc1NP(C)(=O)Nc1ccccc1C`, the activity score is inactive: -2.78%.

For the origin of these results see PubChem BioAssay AID1875 (Broad Institute, 2009).
